# Binding of CDR-mutated scFvs to a peptide of the spike HR2 region

All variants were tested on one target, the spike HR2 peptide PDVDLGDISGINAS (SARS-CoV-2).

Each scFv is VL, three GGGGS repeats, VH, as in the parent Ab-91, and differs from it in the CDRs of the heavy chain only.
VL: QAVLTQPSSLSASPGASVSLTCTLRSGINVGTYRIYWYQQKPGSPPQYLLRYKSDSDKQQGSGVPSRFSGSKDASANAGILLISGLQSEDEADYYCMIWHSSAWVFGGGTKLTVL
VH: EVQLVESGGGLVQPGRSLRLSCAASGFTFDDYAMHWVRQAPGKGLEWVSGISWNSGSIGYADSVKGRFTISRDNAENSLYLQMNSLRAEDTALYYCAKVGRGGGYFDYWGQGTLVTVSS

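Phage display of a naive human antibody library on the peptide gave the parent. Library AAYL51 holds single substitutions and randomly drawn double and triple substitutions in the CDRs. AlphaSeq pools MATa yeast showing the antibodies with MATalpha yeast showing the peptide. The frequency of each diploid, read from paired DNA barcodes, reflects how well the two displayed proteins bind. Read counts were normalised to the haploid input and turned into Kd by a linear fit to BCL2-family pairs of known affinity, for each replicate. There are three technical replicates.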

Changes read parent residue, position, new residue, counted from the first residue of the VH shown.
This list gathers variants with a substitution at V64 (VH, numbered from residue 1).
The Kd shown is the geometric mean over detected replicates; a lower Kd is a better binder.
"nd" means that the variant was in the library but no mating with the target was seen in any replicate; the authors take this as a sign of poor binding, and no number exists.
In this assay the parent's reference entry averaged 72 nM; its copy inside this library read 7.5 nM.
As a blank, each scFv also met three strains without target: over library AAYL51, 21% of these pairings were detected, typically at 34 µM and seldom below 1.8 µM.

Variant H35L/S57N/V64W showed 34 µM (1 of 3 replicates). For I51G/V64L/R101H, the assay gave 6.5 µM (2 of 3 replicates). Variant H35K/V64W/F106M gave nd (0 of 3 replicates). Variant Y60W/V64W/G103A showed nd (0 of 3 replicates). Variant N54H/D62V/V64M gave 20 µM (1 of 3 replicates). With W53N/V64G the result was 4.1 µM (1 of 3 replicates).

For D30F/V64W/K65R, the assay gave 24 µM (1 of 3 replicates). Variant S55M/V64L/D107F gave nd (0 of 3 replicates). Variant F27K/V64Q gave 20 µM (2 of 3 replicates). With H35W/V64D/Y108M the result was nd (0 of 3 replicates). For H35D/G50T/V64R, the assay gave nd (0 of 3 replicates). With F27S/V64Q/F106L the result was nd (0 of 3 replicates).

Variant M34I/V64F showed 120 µM (2 of 3 replicates). Variant G26F/W53L/V64A showed 360 µM (2 of 3 replicates). For V64C/R101P/Y105E, the assay gave 520 nM (3 of 3 replicates). Variant D30E/V64I gave 6.2 nM (3 of 3 replicates). For H35W/V64N/G102A, the assay gave nd (0 of 3 replicates). Variant D30K/M34Y/V64S showed 210 µM (2 of 3 replicates).

Variant A61G/V64I/Y105Q showed 12 µM (3 of 3 replicates). Variant N54W/V64R/Y105E showed nd (0 of 3 replicates). With Y32R/G59S/V64T the result was nd (0 of 3 replicates). For S55I/V64C/K65A, the assay gave 440 µM (2 of 3 replicates). For N54H/I58V/V64Y, the assay gave 54 µM (1 of 3 replicates). For F29S/S52C/V64G, the assay gave 20 µM (1 of 3 replicates).

For F29P/W53P/V64L, the assay gave 13 µM (2 of 3 replicates). Variant I58D/V64Y gave 190 µM (2 of 3 replicates). With S63F/V64W/G100S the result was 26 µM (1 of 3 replicates). For V64Q/V99H/G102S, the assay gave nd (0 of 3 replicates). Variant I51K/W53V/V64M showed nd (0 of 3 replicates). Variant V64M/F106H gave nd (0 of 3 replicates).

For G56S/V64H/G102A, the assay gave 120 µM (3 of 3 replicates). Variant S57K/V64I/K65H showed 1.3 µM (1 of 3 replicates). For F27A/G56C/V64D, the assay gave nd (0 of 3 replicates). Variant F27V/Y60A/V64S gave nd (0 of 3 replicates). For Y60P/V64F/G104F, the assay gave nd (0 of 3 replicates). Variant D31L/V64G/G103C gave 2.0 µM (3 of 3 replicates).

Variant G26L/S63R/V64S gave nd (0 of 3 replicates). For F27T/I51Y/V64W, the assay gave nd (0 of 3 replicates). For M34D/D62G/V64L, the assay gave nd (0 of 3 replicates). For V64N/D107E, the assay gave 420 nM (3 of 3 replicates). With Y32W/G56Q/V64E the result was 850 µM (3 of 3 replicates). Variant G26V/V64C showed 120 µM (3 of 3 replicates).

A selection of 3 entries from above:

{"changes": "H35L/S57N/V64W", "apparent Kd": "34 µM", "detected": "1 of 3"}
{"changes": "S55M/V64L/D107F", "apparent Kd": "nd", "detected": "0 of 3"}
{"changes": "Y32R/G59S/V64T", "apparent Kd": "nd", "detected": "0 of 3"}

Data: MIT Lincoln Laboratory AlphaSeq set, Engelhart et al. 2022, doi:10.1038/s41597-022-01779-4, as distributed in FLAb.